In patent US20190153024A1, “NOVEL SALTS AND POLYMORPHS OF SCY-078” (priority 2015, published 2019):

What was measured:
Assay type in all cases: physicochemical
[1] = Equilibrium solubility in water; settings: initial pH 8.0, 24 hrs
[2] = Kinetic solubility in water (citrate Type A, freebase/citric acid mixture, amorphous citrate); settings: for XRPD Form: remaining solid; for Form: residual solid by XRPD
[3] = Solubility of citrate Type N and Type Q in EtOH at 5° C. and 20° C.; settings: EtOH solubility experiments

**Q.** For `CC(C)[C@@H](C)[C@@]1(C)CC[C@]2(C)[C@H]3CC[C@@H]4[C@@]5(COC[C@]4(C)[C@@H](OC[C@](C)(N)C(C)(C)C)[C@H](n4ncnc4-c4ccncc4)C5)C3=CC[C@@]2(C)[C@@H]1C(=O)O.O=C(O)CC(O)(CC(=O)O)C(=O)O` [SCY-078 citrate Type A], which “Final pH” value ([1]; ratio of solid/solvent 0.3 mg/mL) is on record?
**A.** 5.1

**Q.** And the “Final pH” value ([1]; ratio of solid/solvent 2.0 mg/mL)?
**A.** 4.2

**Q.** What about the “Final pH” value ([1]; ratio of solid/solvent 50.6 mg/mL) of the same compound?
**A.** 3.4

**Q.** And the pH ([2]; kinetic solubility in water (initial pH 8.0), 1 hr)?
**A.** 3.3

**Q.** And the pH ([2]; kinetic solubility in water (initial pH 8.0), 4 hrs)?
**A.** 3.3

**Q.** What about the pH ([2]; kinetic solubility in water (initial pH 8.0), 24 hrs) of the same compound?
**A.** 3.4

**Q.** What about the “XRPD Form” value ([2]; water, 20 mg/mL, 1 hr) of the same compound?
**A.** Citrate Type A

**Q.** What about the “XRPD Form” value ([2]; water, 20 mg/mL, 4 hrs) of the same compound?
**A.** Citrate Type A

**Q.** And the “XRPD Form” value ([2]; water, 20 mg/mL, 24 hrs)?
**A.** Citrate Type A

**Q.** And the “XRPD Form” value ([2]; water, 50 mg/mL, 1 hr)?
**A.** Citrate Type A

**Q.** What about the “XRPD Form” value ([2]; water, 50 mg/mL, 4 hrs) of the same compound?
**A.** Citrate Type A

**Q.** What about the “XRPD Form” value ([2]; water, 50 mg/mL, 24 hrs) of the same compound?
**A.** Citrate Type A

**Q.** And the pH ([2]; water, 20 mg/mL, 1 hr)?
**A.** 3.5

**Q.** What about the pH ([2]; water, 20 mg/mL, 4 hrs) of the same compound?
**A.** 3.4

**Q.** What about the pH ([2]; water, 20 mg/mL, 24 hrs) of the same compound?
**A.** 3.3

**Q.** What about the pH ([2]; water, 50 mg/mL, 1 hr) of the same compound?
**A.** 3.4

**Q.** What about the pH ([2]; water, 50 mg/mL, 4 hrs) of the same compound?
**A.** 3.3

**Q.** And the pH ([2]; water, 50 mg/mL, 24 hrs)?
**A.** 3.2

**Q.** What about the “dissolution behaviour in water” value ([2]; water, 1 hour to 24 hours) of the same compound?
**A.** slow rate of dissolution and increasing solubility

**Q.** What about the “solid form of residual solid in water” value ([2]; water, after 24 hours) of the same compound?
**A.** partially converted to amorphous

**Q.** What does the source list for `CC(C)[C@@H](C)[C@@]1(C)CC[C@]2(C)[C@H]3CC[C@@H]4[C@@]5(COC[C@]4(C)[C@@H](OC[C@](C)(N)C(C)(C)C)[C@H](n4ncnc4-c4ccncc4)C5)C3=CC[C@@]2(C)[C@@H]1C(=O)O.O=C(O)CC(O)(CC(=O)O)C(=O)O` [SCY-078 citrate amorphous]?
**A.** Form ([2]; starting solid from fast evaporation in THF (pH 8.0), 1 hr): Amorphous; Form ([2]; starting solid from lyophilization in pH 6.0 buffer, 1 hr): Amorphous; Form ([2]; starting solid from lyophilization in pH 6.0 buffer, 4 hrs): Amorphous; Form ([2]; starting solid from lyophilization in pH 6.0 buffer, 24 hrs): Amorphous; Form ([2]; starting solid from lyophilization in water (pH 8.0), 1 hr): Amorphous; pH ([2]; water, starting solid from fast evaporation in THF (pH 8.0), 1 hr): 3.2; pH ([2]; water, starting solid from fast evaporation in THF (pH 8.0), 4 hrs): 3.2; pH ([2]; water, starting solid from fast evaporation in THF (pH 8.0), 24 hrs): 3.2; pH ([2]; water, starting solid from lyophilization in water (pH 8.0), 1 hr): 3.1; pH ([2]; water, starting solid from lyophilization in water (pH 8.0), 4 hrs): 3.3; pH ([2]; water, starting solid from lyophilization in water (pH 8.0), 24 hrs): 3.2

**Q.** With `CC(C)[C@@H](C)[C@@]1(C)CC[C@]2(C)[C@H]3CC[C@@H]4[C@@]5(COC[C@]4(C)[C@@H](OC[C@](C)(N)C(C)(C)C)[C@H](n4ncnc4-c4ccncc4)C5)C3=CC[C@@]2(C)[C@@H]1C(=O)O.O=C(O)CC(O)(CC(=O)O)C(=O)O` [SCY-078 citrate Type Q] as the compound, how does the “form change of remaining wet cake (XRPD)” value [3] read?
**A.** no form change
